{"source": "patent US20230158001A1", "about": "“PHARMACEUTICAL COMPOSITION COMPRISING BENZIMIDAZOLE DERIVATIVE COMPOUND” (HK INNO.N CORPORATION, priority 2020, published 2023)", "experiment": "Pharmacokinetic interaction of tegoprazan and celecoxib, alone or in combination (Cohort 3)", "settings": "celecoxib; co-administered with tegoprazan vs alone", "data": [{"compound": "Cc1ccc(-c2cc(C(F)(F)F)nn2-c2ccc(S(N)(=O)=O)cc2)cc1", "note": "[Celecoxib, celecoxib, reference compound]", "values": [{"measurement": "AUCτ, Geometric LS Mean Ratio (Treatment G/Treatment F), Point Estimate", "result": 1.0826}, {"measurement": "Css,max, Geometric LS Mean Ratio (Treatment G/Treatment F), Point Estimate", "result": 1.1811}]}]}
